Source: patent US20160113921A1, “COMBINATION THERAPY COMPRISING OXAZOLIDINONE-QUINOLONES FOR USE IN TREATING BACTERIAL INFECTIONS” (MORPHOCHEM AKTIENGESELLSCHAFT FÜR KOMBINATORISCHE CHEMIE, priority 2013, published 2016)

Tests used:
E. cloacae ATCC 13047 = test: Checkerboard titration of Compound 1 and colistin; conditions: listed as MCB
[1] = test system: E. cloacae NRZ-00239 (VIM-1 β-lactamase); test: Checkerboard titration of Compound 1 and colistin; conditions: Enterobacter cloacae, read-out: MIC (agent alone)
[2] = test system: P. aeruginosa NRZ-00425 (VIM-1); test: MIC, broth microdilution (CLSI), CAMHB; conditions: Pseudomonas aeruginosa
[3] = test system: E. cloacae NRZ-00239 (VIM-1); test: MIC, broth microdilution (CLSI), CAMHB; conditions: Enterobacter cloacae
[4] = test system: P. mirabilis NRZ-00185 (AmpC, type CMY-2); test: MIC, broth microdilution (CLSI), CAMHB; conditions: Proteus mirabilis
P. mirabilis ATCC 9240 = test: MIC, broth microdilution (CLSI), CAMHB; conditions: Proteus mirabilis, ATCC9240
[5] = test system: K. pneumoniae NRZ-00002 (OXA-48); test: MIC, broth microdilution (CLSI), CAMHB; conditions: Klebsiella pneumoniae
[6] = test system: E. coli NRZ-00302 (metallo β-lactamase NDM-1); test: MIC, broth microdilution (CLSI), CAMHB; conditions: Escherichia coli
[7] = test system: K. pneumoniae NRZ-00103 (KPC-2); test: MIC, broth microdilution (CLSI), CAMHB; conditions: Klebsiella pneumoniae
[8] = test system: K. pneumoniae NRZ-00535 (VIM-1); test: MIC, broth microdilution (CLSI), CAMHB; conditions: Klebsiella pneumoniae
[9] = test system: E. coli GNS-2601 (ESBL CTX-M-15); test: MIC, broth microdilution (CLSI), CAMHB; conditions: Escherichia coli
P. aeruginosa ATCC 10145 = test: MIC, broth microdilution (CLSI), CAMHB; conditions: Pseudomonas aeruginosa, ATCC10145

CC(=O)NC[C@H]1CN(c2ccc(OCC3(O)CCN(c4cc5c(cc4F)c(=O)c(C(=O)O)cn5C4CC4)CC3)c(F)c2)C(=O)O1 [Compound 1, 7-(4-{4-[(5S)-5-(acetylamino-methyl)-2-oxo-oxazolidin-3-yl]-2-fluoro-phenoxymethyl}-4-hydroxy-piperidin-1-yl)-1-cyclopropyl-6-fluoro-4-oxo-1,4-dihydro-quinoline-3-carboxylic acid]
256 µg/mL: MIC (agent alone) (E. cloacae ATCC 13047)

CC(=O)NC[C@H]1CN(c2ccc(OCC3(O)CCN(c4cc5c(cc4F)c(=O)c(C(=O)O)cn5C4CC4)CC3)c(F)c2)C(=O)O1 [Compound 1, 7-(4-{4-[(5S)-5-(acetylamino-methyl)-2-oxo-oxazolidin-3-yl]-2-fluoro-phenoxymethyl}-4-hydroxy-piperidin-1-yl)-1-cyclopropyl-6-fluoro-4-oxo-1,4-dihydro-quinoline-3-carboxylic]
256 µg/mL: MIC [1] | MIC [2] | MIC [3] | MIC [4] | MIC (P. mirabilis ATCC 9240) | MIC [5] | MIC [6] | MIC [7] | MIC [9] | MIC (P. aeruginosa ATCC 10145)
> 256 µg/mL: MIC [8]
